This is an account of results in patent publication US4608365A, “Treatment of neurologic functions” (priority 1984, dated 1986).

The nature of this data set: Pharmacokinetics in patient cerebrospinal fluid and plasma. Conditions: with TRH intravenous infusions; normal less than about 600. As to the method: In three ALS patients given 25 mg TRH intravenously during 6 minutes, concommitant TRH values were measured in the plasma and serum at 0, 6 and 12 minutes.

On to “histidine-proline diketopiperazine [cyclo-HisPro]”, for which the “cerebrospinal fluid cyclo-HisPro level” value is reported as ≤ 10,508 pg/ml.
